What all share (test): FOREST: bead pull-down of RNA structure library v1, barcode microarray; U1A/LIN28A: 20 mM HEPES pH 7.5, 80 mM KCl, 20 mM NaCl, 10% glycerol, 2 mM DTT, 0.1 ug/uL BSA, 4 C; BG4/CIRBP/DHX36: 10 mM Tris-HCl pH 7.5, 100 mM KCl (or LiCl),; high values mean tight binding
One assay addresses U1A (Homo sapiens, UniProt P09012).
The next assay deals with T1, LIN28A (human?, UniProt Q9H9Z2 1-209).
T1 sequence: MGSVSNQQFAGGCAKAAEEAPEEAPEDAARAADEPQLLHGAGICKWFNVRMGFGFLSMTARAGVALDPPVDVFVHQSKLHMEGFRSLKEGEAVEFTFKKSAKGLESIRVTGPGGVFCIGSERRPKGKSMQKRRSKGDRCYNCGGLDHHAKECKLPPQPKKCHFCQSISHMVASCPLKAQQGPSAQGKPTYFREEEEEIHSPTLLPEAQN

The target in another assay is T2, CIRBP (Homo sapiens, UniProt Q14011 1-172).
T2 sequence: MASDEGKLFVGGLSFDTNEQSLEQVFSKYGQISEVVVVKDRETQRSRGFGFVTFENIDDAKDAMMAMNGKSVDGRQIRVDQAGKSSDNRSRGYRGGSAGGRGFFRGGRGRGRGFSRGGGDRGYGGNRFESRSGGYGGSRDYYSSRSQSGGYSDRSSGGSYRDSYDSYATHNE

The next assay deals with T3, DHX36 (Homo sapiens, UniProt Q9H2U1 1-1008).
T3 sequence: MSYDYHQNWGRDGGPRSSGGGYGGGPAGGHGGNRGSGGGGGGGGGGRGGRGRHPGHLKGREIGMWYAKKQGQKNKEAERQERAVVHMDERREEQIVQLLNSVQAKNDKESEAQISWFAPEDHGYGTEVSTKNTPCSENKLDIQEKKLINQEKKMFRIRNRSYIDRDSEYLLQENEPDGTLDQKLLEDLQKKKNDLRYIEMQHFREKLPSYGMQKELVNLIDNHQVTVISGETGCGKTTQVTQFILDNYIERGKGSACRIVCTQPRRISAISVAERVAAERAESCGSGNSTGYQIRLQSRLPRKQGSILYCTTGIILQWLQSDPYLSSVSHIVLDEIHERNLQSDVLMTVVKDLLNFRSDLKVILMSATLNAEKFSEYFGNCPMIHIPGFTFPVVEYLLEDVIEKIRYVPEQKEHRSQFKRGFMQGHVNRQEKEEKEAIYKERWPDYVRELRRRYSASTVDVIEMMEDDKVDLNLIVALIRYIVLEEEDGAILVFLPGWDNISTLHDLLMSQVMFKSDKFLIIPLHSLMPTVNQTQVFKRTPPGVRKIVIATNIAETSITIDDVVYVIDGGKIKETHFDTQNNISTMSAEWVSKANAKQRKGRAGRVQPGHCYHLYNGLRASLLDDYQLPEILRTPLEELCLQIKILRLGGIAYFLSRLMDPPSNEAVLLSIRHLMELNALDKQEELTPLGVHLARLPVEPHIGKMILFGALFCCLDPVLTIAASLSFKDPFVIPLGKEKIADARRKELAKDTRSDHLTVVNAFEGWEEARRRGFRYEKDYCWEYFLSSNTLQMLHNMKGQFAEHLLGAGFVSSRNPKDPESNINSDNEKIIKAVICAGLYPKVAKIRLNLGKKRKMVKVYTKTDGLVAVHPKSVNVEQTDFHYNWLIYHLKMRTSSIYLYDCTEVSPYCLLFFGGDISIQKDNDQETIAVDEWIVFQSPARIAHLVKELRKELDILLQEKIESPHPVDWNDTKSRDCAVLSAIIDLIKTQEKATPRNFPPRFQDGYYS

These results are taken from PMC7723054.

Some of the results follow.

B1: hsa-mir-663b (structured_RNA)
RNA: GGGAAGUACAUGCAAGGAUUUAAGCCGUGGUGUACGAAGUUUCAGCUCCUAGGCGGGUCGCUGCGGUACCUCCCUCCUGUCUGUGGCGGUGGGAUCCCGUGGCCGUGUUUUCCUGGUGGCUGAAGCUUCGUGCAC
For B1, the binding signal with U1A is 0.856 z-score; in the assay with LIN28A, 0.214 z-score; with CIRBP it was -0.766 z-score; with DHX36 it was 0.0778 z-score.

B2: hsa-mir-610 (structured_RNA)
RNA: GGGACAGUGGUAAUCUUGCCACCACGACGGUGUACGAAGUUUCAGCGGGACACAUUUGAGCCAAAUGUCCCGCUGAAGCUUCGUGCAC
B2: the binding signal in the assay with U1A was 0.856 z-score; in the assay with LIN28A, -0.998 z-score; with CIRBP, -1.05 z-score; with DHX36, -0.42 z-score.

B3: hsa-mir-8073 (structured_RNA)
RNA: GGGAAUGCAAGGGGCACUCAAAAGCACAGGUGUACGAAGUUUCAGCUCGUCAGUGUUUGAGCUGAAGCUUCGUGCAC
Regarding B3, the binding signal in the assay with U1A was 0.846 z-score; with LIN28A, 0.317 z-score; in the assay with CIRBP, 0.0495 z-score; with DHX36 it was 0.816 z-score.

B4: hsa-mir-6083 (structured_RNA)
RNA: GGGACUAGCGUUCGUAUAGCAAUCCUGAGGUGUACGAAGUUUCAGCAGGUGGAAAGGGAGCAGGAGCAUCGUCUUUAAGAGGGUCAGGUACCUUUGCUCUUAGCUGAAGCUUCGUGCAC
As for B4, the binding signal with U1A came to 0.855 z-score; in the assay with LIN28A it was 1.14 z-score; in the assay with CIRBP it was 0.122 z-score; with DHX36 it was 1.28 z-score.

B5: hsa-mir-3183 (structured_RNA)
RNA: GGGAACGAGUGCCCCUAUUUGCCUGAAUGGUGUACGAAGUUUCAGCCGGAGCAGUCACGUUGACGGAAUCCUCCGGCUGAAGCUUCGUGCAC
For B5, the binding signal in the assay with U1A was 0.859 z-score; with LIN28A it was -1.35 z-score; with CIRBP, 0.145 z-score; in the assay with DHX36, -0.314 z-score.

B6: hsa-mir-4278 (structured_RNA)
RNA: GGGAAAGUCAUAGACCGGAGUCUUCCUAGGUGUACGAAGUUUCAGCAUAGAACAUUGACAUCAACACUAGGCUGAAGCUUCGUGCAC
Regarding B6, the binding signal in the assay with U1A is 0.852 z-score; in the assay with LIN28A it was 0.43 z-score; in the assay with CIRBP, -1.36 z-score; with DHX36 it was -1.11 z-score.

B7: hsa-mir-1225 (structured_RNA)
RNA: GGGAACGUACAUGAACUGCGCAUAAGAUGGUGUACGAAGUUUCAGCGGGGAGAGGGACACGCCCUGGGCUCUGCCCAGGGUGCAGCCGGACUGACUGAGGCUGAAGCUUCGUGCAC
In the case of B7, the binding signal amounted to 0.815 z-score in the assay with U1A, 0.666 z-score with LIN28A, 1.05 z-score in the assay with CIRBP and 1.54 z-score in the assay with DHX36.

B8: hsa-mir-7-3 (structured_RNA)
RNA: GGGAAAUGUAGCUCCCCUUUAGCGGAUUGGUGUACGAAGUUUCAGCUUGUUCUGAUGUACUACGACAAGCUGAAGCUUCGUGCAC
With B8, the binding signal is 0.861 z-score with U1A, 0.953 z-score with LIN28A, 0.911 z-score in the assay with CIRBP and -0.176 z-score with DHX36.

B9: hsa-mir-5683 (structured_RNA)
RNA: GGGACAGGGUCAUUAUCGCCCAUGAAUUGGUGUACGAAGUUUCAGCCUUCUUACUGCACCAGUGAAGGCUGAAGCUUCGUGCAC
As to B9, the binding signal is 0.854 z-score with U1A, -1.9 z-score with LIN28A, -1.96 z-score with CIRBP and -0.466 z-score in the assay with DHX36.

B10: hsa-mir-3605 (structured_RNA)
RNA: GGGACGGGAAACCCAAAUCUUCAUUAGGGGUGUACGAAGUUUCAGCGAAGCCGCUCCCACCUGACCCUCACGGCCUCGCUGAAGCUUCGUGCAC
In the case of B10, the binding signal with U1A was 0.853 z-score; with LIN28A, -1.62 z-score; with CIRBP, -1.14 z-score; in the assay with DHX36, -0.254 z-score.

B11: hsa-mir-4662a (structured_RNA)
RNA: GGGACUAUAAGAGGGGCUCACGUGAACCGGUGUACGAAGUUUCAGCCUUUAGCUAUUCUGAAUGCCUAAAGGCUGAAGCUUCGUGCAC
Consider B11, for which the binding signal in the assay with U1A is 0.82 z-score; in the assay with LIN28A, -1.74 z-score; with CIRBP, -0.565 z-score; with DHX36 it was -0.251 z-score.

B12: hsa-mir-152 (structured_RNA)
RNA: GGGAACUCGGUAGAGCCGCACGAAAUGUGGUGUACGAAGUUUCAGCCCGACUCGGGCUCUGGAGCAGUCGCUGAAGCUUCGUGCAC
As to B12, the binding signal was 0.825 z-score with U1A, -0.653 z-score with LIN28A, 0.16 z-score with CIRBP and -0.618 z-score with DHX36.

B13: hsa-mir-29a (structured_RNA)
RNA: GGGACUGCGACAUGAGACAUUGUCUAACGGUGUACGAAGUUUCAGCUUCAGAGUCAAUAUAAUUUUCUAGGCUGAAGCUUCGUGCAC
In the case of B13, the binding signal in the assay with U1A is 0.831 z-score; with LIN28A, 0.328 z-score; with CIRBP it was -0.848 z-score; with DHX36 it was -0.319 z-score.

B14: hsa-mir-33b (structured_RNA)
RNA: GGGAAUAACACACCGCUCGGUGACCAGGGGUGUACGAAGUUUCAGCAUUGCACGUGUGUGAGGCGGGUGCAGUGCUGAAGCUUCGUGCAC
In the case of B14, the binding signal with U1A is 2.35 z-score; in the assay with LIN28A, -0.737 z-score; with CIRBP, -0.939 z-score; in the assay with DHX36, -0.589 z-score.

B15: hsa-mir-3942 (structured_RNA)
RNA: GGGAGUUACGCGCACGAGCAUACGUUGAGGUGUACGAAGUUUCAGCGAAAUAGGCUGCGAAGAUAACAGUAUUUCGCUGAAGCUUCGUGCAC
For B15, the binding signal with U1A is 0.82 z-score; with LIN28A, 2.31 z-score; with CIRBP it was -0.221 z-score; with DHX36 it was 0.973 z-score.

B16: hsa-mir-642a (structured_RNA)
RNA: GGGAAUCAAAGGCACGGUGUAUCUAGCAGGUGUACGAAGUUUCAGCGUCUUGGGGUGGGGGAUCAAGACGCUGAAGCUUCGUGCAC
In the case of B16, the binding signal in the assay with U1A turned out to be 0.843 z-score; with LIN28A, 1.81 z-score; in the assay with CIRBP, 1.56 z-score; with DHX36, 2.98 z-score.

B17: hsa-mir-4451 (structured_RNA)
RNA: GGGAAUGUGACCCUCCUCCCGCAUAGUAGGUGUACGAAGUUUCAGCGCUCCCAACCAACCACUUCCACAUGUUUUGCUGGUGCUGAAGCUUCGUGCAC
For B17, the binding signal with U1A is 0.822 z-score; in the assay with LIN28A, -0.857 z-score; in the assay with CIRBP, -0.808 z-score; in the assay with DHX36, -0.52 z-score.

B18: hsa-mir-708 (structured_RNA)
RNA: GGGACAGGAGGAGACCCCUGAACCUUUUGGUGUACGAAGUUUCAGCGCUGGGGGUAAAUGACUUGCACAUGAACACAACGCUGAAGCUUCGUGCAC
As for B18, the binding signal is 2.35 z-score in the assay with U1A, -0.0985 z-score with LIN28A, -0.742 z-score in the assay with CIRBP and 0.462 z-score in the assay with DHX36.

B19: hsa-mir-6751 (structured_RNA)
RNA: GGGAUACUAAGUAACAGGGCCCACUCCGGGUGUACGAAGUUUCAGCGUGUCUGGCCCCAGCAGCCCAGACUGCUGAAGCUUCGUGCAC
Regarding B19, the binding signal in the assay with U1A was 0.82 z-score; in the assay with LIN28A, 0.304 z-score; with CIRBP it was -0.409 z-score; with DHX36 it was 0.0849 z-score.

B20: hsa-mir-1233-2_1233-1 (structured_RNA)
RNA: GGGAACGAUCGAGCCGUACCAUGGAGACGGUGUACGAAGUUUCAGCGGCAGGGGGAGCUGCAGGGCUAUGGGAGGGGCCCCAGCGUCUGAGCUGAAGCUUCGUGCAC
Turning to B20, the binding signal with U1A stood at 0.827 z-score; in the assay with LIN28A it was 2.51 z-score; with CIRBP it was 0.572 z-score; with DHX36, 3.25 z-score.

B21: hsa-mir-6509 (structured_RNA)
RNA: GGGAGUUCCACAAGACGAGGGUGACUCCGGUGUACGAAGUUUCAGCGGAACACUAUAUUAAUCAGGUUUCCGCUGAAGCUUCGUGCAC
B21: the binding signal with U1A is 0.834 z-score; with LIN28A, 1.3 z-score; with CIRBP, -0.108 z-score; in the assay with DHX36 it was -0.0241 z-score.

B22: hsa-mir-126 (structured_RNA)
RNA: GGGCACAUCUACCAUGGAAGAUACGACAGGUGUACGAAGUUUCAGCACGCGCUGUGACACUUCAAACUCGUGCUGAAGCUUCGUGCAC
Take B22: the binding signal is 0.84 z-score in the assay with U1A, 0.944 z-score with LIN28A, -0.567 z-score with CIRBP and 1.27 z-score with DHX36.
